Literature values as cited in article PMC10406941 (Scientific Reports, 2023).

Chains of the proteins cited; added tags and fusions are not shown. Lines headed by an entry give the natural chain unless they say otherwise; changes in a name come on top.
UniProt Q60492, whole entry: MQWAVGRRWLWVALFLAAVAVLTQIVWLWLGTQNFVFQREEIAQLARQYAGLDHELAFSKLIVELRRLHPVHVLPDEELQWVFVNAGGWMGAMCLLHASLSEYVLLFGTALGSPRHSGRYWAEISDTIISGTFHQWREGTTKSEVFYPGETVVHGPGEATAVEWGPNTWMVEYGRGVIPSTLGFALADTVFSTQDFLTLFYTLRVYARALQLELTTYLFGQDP

Target: T1, S1R (Cavia porcellus, UniProt Q60492)
T1 construct: [^3H]-( +)-Pentazocine on guinea pig brain according to the generally accepted protocol; from tissue; host or cells: guinea pig brain
Conditions: Table 1; [3H]-(+)-Pentazocine, guinea pig brain; mean of three experiments in duplicate; cited from earlier work

| Compound | Ki [nM] |
| --- | --- |
| COc1cccc2c1CCCC2CCCCN1CCN(C2CCCCC2)CC1 (racemic) [Compound 4] | 1.54 |
| Oc1cccc2c1CCCC2CCCN1CCN(C2CCCCC2)CC1 (racemic) [Compound 15] | 5.4 |
